pIC50, pKi: −log10 of the molar value.
Experiments:
EP3 receptor [1] = target: T1, EP3 receptor (Homo sapiens, UniProt P43115); assay: [3H]-PGE2 binding assay (EP3 competition binding)
T1 construct: purchased Millipore HTS092M
T1 sequence (P43115 1-390): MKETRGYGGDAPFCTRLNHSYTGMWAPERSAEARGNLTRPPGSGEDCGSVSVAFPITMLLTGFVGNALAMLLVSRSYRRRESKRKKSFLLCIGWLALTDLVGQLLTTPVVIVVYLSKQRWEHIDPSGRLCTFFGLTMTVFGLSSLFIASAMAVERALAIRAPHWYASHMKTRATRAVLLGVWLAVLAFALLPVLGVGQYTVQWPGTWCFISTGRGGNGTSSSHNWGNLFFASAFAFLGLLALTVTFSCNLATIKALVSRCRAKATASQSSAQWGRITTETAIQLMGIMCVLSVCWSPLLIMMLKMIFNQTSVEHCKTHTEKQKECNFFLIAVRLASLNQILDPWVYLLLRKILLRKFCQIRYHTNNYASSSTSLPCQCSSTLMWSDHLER
Method: EP3 competition binding was determined using the following materials and experimental conditions:
Beads=Perkin Elmer RPNQ0001
EP3 membrane=Millipore HTS092M
Membrane concentration=2 μg/well
Beads concentration=0.25 mg/well
[3H]-PGE2=2 nM; DMSO—0.1%
Binding buffer=50 mM Tris, 10 mM MgCl2, 1 mM • EDTA, PH 7.4.
The binding buffer was removed from refrigeration (@ 4° C.) and allowed to warm to room temperature. Test compound (@ stock concentration of […] in DMSO) was serial dilutes (1:3) with 100% DMSO using Echo plate. Diluted test compound (30 nL) was dispensed to the 384-well assay plate (using Echo 550 Labcyte System). To each well was then added assay buffer (5 μl) and each well was spun. Beads were weighed out, dissolved in assay buffer to a concentration of 0.25 mg/15 μl. Original membrane was diluted with assay buffer to a concentration of 2 μg/5 μl. […] To each test well were then added diluted [3H]-PGE2 (5 μl), diluted membrane (5 μl), and dissolved beads (15 μl). The plate was equilibrated at room temperature on a plate shaker for 2 hours and then read with a TOPCOUNT scintillation plate reader. Results were analyzed using a Prism program with non-linear regression, one-site fit for Ki.

EP3 receptor [2] = target: T1, EP3 receptor; assay: CHO cell cAMP assay (forskolin and sulprostone stimulated, HTRF); format: cell-based; conditions: CHO cells; sulprostone 700 nM (EC80) and FSK 2 μM (EC70), 37° C. for 30 minutes; read-out: CHO_cAMP IC50
Method: For detection, a homogeneous competitive immunoassay (Time Resolved Fluorescence Energy Transfer (hTR-FRET)) was used.
Cells (6K cells per well) were plated in Poly-D-Lysine coated plates the day before the assay was to be run and were incubated at 37° C. […] At the start of the assay the buffer was removed from the cells and replaced with buffer containing test compound(s). Sulprostone at an EC80 dose (700 nM) and FSK at an EC70 dose (2 μM) were added to initiate the reaction (37° C. for 30 minutes).
FSK increases cAMP production and sulprostone decreases cAMP production produced by FSK. In this assay, EP3 antagonists will increase the cAMP to the level of cAMP generated by FSK alone.
Approximately one hour later the plates were read on an Envision (Perkin Elmer) in HTRF mode.
NSP, NSN, NSsample were converted to nM cAMP using the following equation: […]
IC50 values were determined from a […] (Hill equation) of a single 11-point compound dosing.

In the case of `CCn1ncc2c(F)cc(-c3ccc(C(/C=C4\OC(=O)NC4=O)C4CCCC4)c(=O)[nH]3)cc21` (centres unmarked) [compound 130, 5-(2-cyclopentyl-2-(6-(1-ethyl-4-fluoro-1H-indazol-6-yl)-2-oxo-1,2-dihydropyridin-3-yl)ethylidene)-oxazolidine-2,4-dione], the pKi (EP3 receptor [1]) was 7.92 and the pIC50 (EP3 receptor [2]) was 7.14.
